From patent US20240382450A1, “COMPOSITION OF B-CAR[…] A STATIN, AND METHODS OF USING SAME” (OrthoTreat Ltd., priority 2021, published 2024)

How the values were obtained:
[1] = test system: Human primary osteoblast cells; conditions: osteoblasts, lovastatin 1, 10 and 100 μM, 24 and 96 hours
Procedure: (§1) In vitro cytotoxicity & proliferation assay (basal) are being performed on human osteoblasts and stem cells monolayers.
Human primary osteoblast cells are maintained in a 37° C. humidified incubator with 5% CO2 atmosphere. Cells are cultured in Primary Osteoblast Media containing Primary Osteoblast Culture Supplement and 1% of the penicillin/streptomycin stock solution.

MUTZ-3 cells = conditions: MUTZ-3, lovastatin 1, 10 and 100 μM, 24 and 96 hours
Procedure: as §1
As a human primary osteoclast cell is unable to proliferate, MUTZ-3, a human cell line model for osteoclast differentiation is also being used. MUTZ-3 cells are maintained in a 37° C. humidified incubator with 5% CO2 atmosphere. Cells are cultured in Dulbecco's modified Eagle's Medium (DMEM) supplemented with 10% foetal calf serum and 1% of the penicillin streptomycin stock solution.

`CC[C@H](C)C(=O)O[C@H]1C[C@@H](C)C=C2C=C[C@H](C)[C@H](CC[C@@H]3C[C@@H](O)CC(=O)O3)[C@H]21` [lovastatin, reference compound] was tested, and the “effect of addition of lovastatin on β-caryophyllene's cytotoxicity” value [1] was “did not affect” and the “effect of addition of lovastatin on β-caryophyllene's cytotoxicity” value (MUTZ-3 cells) was “did not affect”.
